Source: patent US8278296B2, “Manipulation of brain CDP-diacylglycerol and uses thereof” (priority 2006, dated 2012)

How the values were obtained:
inositol phosphates = test: [3H]inositol phosphate accumulation in rat brain slices; format: cell-based; settings: 3-300 μM; hippocampus, frontal cortex, striatum slices
phosphatidylinositides = test: [3H]inositol phospholipid (phosphatidylinositide) resynthesis in rat brain slices; format: cell-based; settings: hippocampus, frontal cortex, striatum slices; 90 min
CDP-diacylglycerol = test: [3H]CDP-diacylglycerol accumulation in rat brain slices; format: cell-based; settings: for effect on [3H]CDP-diacylglycerol accumulation: rat hippocampal, prefrontal cortical and striatal slices, LiCl present, 90 min
5HT2 receptor = test: α-methylserotonin-stimulated IP accumulation in tissues prelabeled with [3H]inositol in presence of antidepressants; format: cell-based, rat

| SMILES | effect on accumulation of IPs (inositol phosphates) | effect on [3H]inositol labeling of PIs (phosphatidylinositide synthesis) (phosphatidylinositides) | effect on [3H]CDP-diacylglycerol accumulation (CDP-diacylglycerol) | enhancement of α-Me5HT-induced IP accumulation by prelabeling in presence of antidepressant (5HT2 receptor) | enhancement of α-methylserotonin effects on IP by prelabeling with antidepressant (5HT2 receptor) | lowest concentration with statistically significant CDP-diacylglycerol response (CDP-diacylglycerol; hippocampus slices, posthoc Dunnett test) [µM] |
| --- | --- | --- | --- | --- | --- | --- |
| CNCCCN1c2ccccc2CCc2ccccc21 [desipramine] | significantly and dose-dependently stimulated | significantly increased | significantly and dose-dependently enhanced |  |  |  |
| CNCCC(Oc1ccc(C(F)(F)F)cc1)c1ccccc1 (stereo not drawn) [fluoxetine] |  |  |  | significantly enhanced | concentration-dependently enhanced |  |
| Fc1ccc([C@@H]2CCNC[C@H]2COc2ccc3c(c2)OCO3)cc1 [paroxetine] | significantly and dose-dependently stimulated | significantly increased | significantly and dose-dependently enhanced |  |  | 30 |
